System: ovariectomized (OVX) rats
Experiment: Biomechanical measures of strength in ovariectomized rats
Format: in vivo, rat
Conditions: 40 μg/kg/day s.c. once daily, 180 days

hPTH-(1-34)
Mid-Femur Young's Modulus (E): 10.7 ± 0.4^ac Gpa
